Molecular target: Estrogen receptor (Homo sapiens, UniProt P03372)

Amino acid sequences for entries named in this document (tags omitted).
UniProt P03372, whole entry: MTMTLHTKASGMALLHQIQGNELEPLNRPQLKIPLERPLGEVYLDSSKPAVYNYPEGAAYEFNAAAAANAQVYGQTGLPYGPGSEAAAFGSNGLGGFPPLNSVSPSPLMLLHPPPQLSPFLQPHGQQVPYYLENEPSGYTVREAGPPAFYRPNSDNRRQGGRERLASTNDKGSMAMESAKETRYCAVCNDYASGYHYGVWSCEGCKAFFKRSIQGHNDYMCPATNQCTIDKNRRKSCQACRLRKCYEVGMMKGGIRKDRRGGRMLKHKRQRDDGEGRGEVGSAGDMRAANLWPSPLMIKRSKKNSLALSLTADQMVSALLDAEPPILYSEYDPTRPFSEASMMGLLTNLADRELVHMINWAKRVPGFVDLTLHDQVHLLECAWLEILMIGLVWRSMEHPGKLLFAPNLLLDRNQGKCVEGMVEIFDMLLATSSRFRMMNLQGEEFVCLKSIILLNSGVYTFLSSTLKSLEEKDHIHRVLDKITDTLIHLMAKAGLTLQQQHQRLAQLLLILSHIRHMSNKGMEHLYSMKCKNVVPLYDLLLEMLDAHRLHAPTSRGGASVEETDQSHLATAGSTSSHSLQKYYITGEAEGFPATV

Row | Compound | EC50 [µM]
1 | Oc1cccc(CNc2nc(Cl)nc3scc(-c4ccccc4)c23)c1 | > 3
2 | CC(C)c1csc2nc(Cl)nc(NCc3ccc(O)cc3)c12 | > 10

— ChEMBL document CHEMBL5120928, “A New Chemotype of Chemically Tractable Nonsteroidal Estrogens Based on a Thieno[2,3-d]pyrimidine Core” (ACS Med Chem Lett, 2022)
